# Results: US10253015B2, “Pyridinyl quinolinone derivatives as mutant-isocitrate dehydrogenase inhibitors” (FORMA TM2, Inc., priority 2014, dated 2019)
# The chains behind the UniProt entries cited, without tags or fusion partners.
# UniProt O75874, whole entry R132H: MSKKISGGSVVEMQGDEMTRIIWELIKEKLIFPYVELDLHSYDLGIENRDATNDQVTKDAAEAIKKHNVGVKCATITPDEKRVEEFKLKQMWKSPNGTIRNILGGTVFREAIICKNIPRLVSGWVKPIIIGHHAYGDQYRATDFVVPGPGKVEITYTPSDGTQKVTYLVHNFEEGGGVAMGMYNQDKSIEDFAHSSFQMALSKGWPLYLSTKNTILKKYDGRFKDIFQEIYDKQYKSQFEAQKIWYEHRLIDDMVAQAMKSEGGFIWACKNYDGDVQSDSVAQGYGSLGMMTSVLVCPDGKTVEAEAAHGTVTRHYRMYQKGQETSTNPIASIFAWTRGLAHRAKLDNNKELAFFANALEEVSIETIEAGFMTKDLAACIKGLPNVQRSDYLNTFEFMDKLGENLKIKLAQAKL
# UniProt O75874, whole entry R132C: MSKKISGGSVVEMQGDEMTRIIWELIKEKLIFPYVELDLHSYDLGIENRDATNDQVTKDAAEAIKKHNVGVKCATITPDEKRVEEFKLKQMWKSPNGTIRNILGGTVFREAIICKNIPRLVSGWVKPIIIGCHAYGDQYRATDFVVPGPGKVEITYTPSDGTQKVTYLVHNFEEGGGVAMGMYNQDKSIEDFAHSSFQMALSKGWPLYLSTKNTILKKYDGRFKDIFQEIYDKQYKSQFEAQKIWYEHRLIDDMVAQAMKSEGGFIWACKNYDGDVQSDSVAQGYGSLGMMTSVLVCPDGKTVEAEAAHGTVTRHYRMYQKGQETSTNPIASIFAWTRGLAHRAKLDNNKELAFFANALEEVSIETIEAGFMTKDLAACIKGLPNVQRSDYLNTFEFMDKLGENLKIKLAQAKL
# Key:
# [1] = target: IDH1-R132H recombinant protein (Homo sapiens (Human), UniProt O75874, R132H); assay: IDH1-R132H enzymatic assay; type: biochemical; conditions: inhibition of NADPH consumption, diaphorase/resazurin readout; read-out: Enzyme IDH1 R132H Range IC50
# Method: (§1) Assays were performed in a 384-well black plate. An aliquot of 250 nL of compound was incubated with 10 μL of 30 nM IDH1-R132H or 10 nM IDH1-R132C recombinant protein in assay buffer (50 mM Tris pH=7.5, 150 mM NaCl, 5 mM MgCl2, 0.1% (w/v) Bovine Serum Albumin, and 0.01% Triton X-100) in each well at 25° C. for 15 minutes. After the plate was centrifuged briefly, an aliquot of 10 μL of 2 mM α-ketoglutarate and 20 μM NADPH solution prepared in assay buffer was then added to each well and the reaction was maintained at 25° C. for 45 minutes. An aliquot of 10 μL of diaphorase solution (0.15 U/mL diaphorase and 30 μM Resazurin in assay buffer) was added to each well. […] The IC50 of a given compound was calculated by fitting the dose response curve of inhibition of NADPH consumption at a given concentration with the four parameter logistic equation.
# [2] = target: IDH1-R132C recombinant protein (Homo sapiens (Human), UniProt O75874, R132C); assay: IDH1-R132C enzymatic assay; type: biochemical; conditions: inhibition of NADPH consumption, diaphorase/resazurin readout; read-out: Enzyme IDH1 R132C Range IC50
# Method: as §1
SMILES,IC50 [1] [nM],IC50 [2] [nM]
"COc1cc(N[C@H](C)c2cc3cc(Cl)ccc3[nH]c2=O)ncc1C#N [Compound I-3, 6-{[(1R)-1-(6-chloro-2-oxo-1,2-dihydroquinolin-3-yl)ethyl]amino}-4-methoxypyridine-3-carbonitrile]",1000 to 10000,1000 to 10000
"C[C@H](Nc1cccc(N2CCOC2=O)n1)c1cc2cc(Cl)ccc2[nH]c1=O [Compound I-11, 6-chloro-3-[(1S)-1-{[6-(2-oxo-1,3-oxazolidin-3-yl)pyridin-2-yl]amino}ethyl]-1,2-dihydroquinolin-2-one]",–,100 to 1000
"COc1cc2[nH]c(=O)c(C(C)Nc3ccc(C#N)c(C)n3)cc2cc1Cl (centres unmarked) [Compound I-24, 6-{[1-(6-chloro-7-methoxy-2-oxo-1,2-dihydroquinolin-3-yl)ethyl]amino}-2-methylpyridine-3-carbonitrile]",< 100,100 to 1000
